Literature values, collected in PMC9954444, “SERPIN-Derived Small Peptide (SP16) as a Potential Therapeutic Agent against HIV-Induced Inflammatory Molecules and Viral Replication in Cells of the Central Nervous System” (Cells, 2023).

Settings: mouse model, following SP16 treatment; cited from earlier work
Source text: Our findings correlate with the anti-inflammatory effects of SP16 as previously published by Toldo et al..

## CCCC[C@H](NC(=O)[C@H](CC(C)C)NC(=O)[C@H](Cc1ccccc1)NC(=O)[C@@H](NC(=O)[C@H](Cc1ccccc1)NC(=O)[C@@H]1CCCN1C(=O)[C@H](CCCCN)NC(=O)[C@H](CC(N)=O)NC(=O)[C@H](Cc1ccccc1)NC(=O)[C@H](CCCCN)NC(=O)[C@@H](NC(C)=O)C(C)C)C(C)C)C(=O)N[C@H](C(=O)N[C@@H](CCC(=O)O)C(=O)N[C@@H](CCC(N)=O)C(=O)N[C@@H](CC(N)=O)C(=O)N[C@H](C(=O)N[C@@H](CCCCN)C(N)=O)[C@@H](C)O)[C@@H](C)CC [SP16]
  inflammation after acute myocardial infarction: decrease in inflammation
